Screening data as filed in PubChem BioAssay.
Sampled rows, rich in hits. Any-hit rate of the full collection: about 0.94%.
PKA-R2B act: PKA-R2B complex activation; P22694+P31323; PKA-R2B holoenzyme dissociation, Cy5-IP20 fluorescence polarization; R2B truncated from residue 108, S112A mutant; 0% DMSO only, 100% 113 µM cGMP; activation, % at 11.4 µM; 340,000 compounds, 0.079% hits; AID 504700;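 active = activation above a cutoff set at the mean over all compounds plus 3 SD, cut at about 18% in these data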;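 also: higher means more holoenzyme dissociation and a rise in polarization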
ABCB6 inh 2: blocks the human ABCB6 transporter; Q9NP58; K562-ABCB6 porphyrin accumulation, flow cytometry, 1 h; active compounds read low; fluorescence ratio to DMSO, % at 10 µM; 360,000 compounds, 0.19% hits;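 active = fluorescence ratio to DMSO below 75%, the collection mean minus 3 SD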;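 also: signal is porphyrin accumulated inside mitochondria; lower ratio means ABCB6 inhibition with less porphyrin fluorescence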
PKA-R1A act: PKA-R1A complex activation; P00514+P68181; PKA-R1A dissociation, Cy5-IP20 fluorescence polarization; scaled: DMSO 0%, 113 µM cGMP 100%; activation, % at 11.4 µM; 340,000 compounds, 0.083% hits; AID 504707;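 active = percent activation above the mean of all tested compounds plus 3 SD, cut at about 19% in these data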;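 also: higher means more PKAc released from R1A so a rise in polarization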
p-CIP stab down: lowers stability of the mouse p/CIP coactivator protein; 290,000 compounds, 0.01% hits; decrease of EGFP signal, % at 10 µM; F442A p/CIP-EGFP cells, EGFP fluorescence, 16 h; AID 1984;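 active = EGFP signal decrease of at least 30% at 10 µM or well 3 SD below plate mean, unless failing retest; inactive = the rest, including hits failing retest or dose response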
Yeast UUG start-1: alters start codon recognition fidelity in yeast | S. cerevisiae UUG-firefly luciferase reporter, luminescence/redox ratio | activity score, % at 18.7 µM | hit rate 0.13% among 350,000 | AID 602363;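 active means replicate mean at a twofold rise or more, about +100% in these data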;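 further: firefly luciferase made from a UUG start codon reports start codon fidelity; reporter light over untreated wells divided by growth signal over untreated wells; some hits fall short of that in this replicate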
Granule exo inh: lytic granule exocytosis inhibition | 360,000 compounds, 0.66% hits | inhibition, % at 10 µM | TALL-104 LAMP-1 surface exposure, flow cytometry; cells stimulated with thapsigargin and PMA | AID 651702;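 active = inhibition above about 55%, limit read from the data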
Yeast UUG start-2: modulators of start codon recognition fidelity in yeast; activation, % at 38 µM; AID 652061; S. cerevisiae UUG-start firefly luciferase, luminescence, 4 h; 100% means double the DMSO signal; 540 tested, under 10 active; shares compounds with Yeast UUG start-1;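 active = signal increase whose fitted curve reaches an absolute level of 40 at a concentration under 10 µM; inactive = activity opposite to the expected increase, or the rest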
Hits are given with their value; ! = not active in a repeat.

For CCOc1cc(C(=S)N2CCOCC2)ccc1OC(=O)/C=C/c1ccc(OC)c(OC)c1 the results were PKA-R2B act inactive, ABCB6 inh 2 inactive, PKA-R1A act inactive, p-CIP stab down inactive, Yeast UUG start-1 517, Granule exo inh inactive and Yeast UUG start-2 inactive.
Cc1ccc(S(=O)(=O)N2C[C@H](O)COC[C@@H]3O[C@H](CC(=O)NCCN4CCCCC4)CC[C@H]32)cc1 was read as Yeast UUG start-1 inactive.
O=C(c1ccccc1F)N1C[C@@H]2[C@H](c3ccccc31)[C@@H](CO)N2C(=O)C1CCCC1 was read as Yeast UUG start-1 active and Yeast UUG start-2 inactive.
For O=C(c1cccnc1)N1C[C@@H]2[C@H](c3ccccc31)[C@H](CO)N2C(=O)C1CCCC1 the results were Yeast UUG start-1 103 and Yeast UUG start-2 inactive.
`O=C(c1cccnc1)N1C[C@@H]2[C@H](c3ccccc31)[C@H](CO)N2C(=O)C1CCCCC1` gave Yeast UUG start-1 inactive.
Screening O=C(Cc1ccccc1)N1C[C@H]2[C@@H](c3ccccc31)[C@@H](CO)N2C(=O)c1ccc(F)cc1 returned Yeast UUG start-1 109 and Yeast UUG start-2 inactive.
O=C(c1ccccc1F)N1C[C@H]2[C@@H](c3ccccc31)[C@H](CO)N2C(=O)C1CCCC1 was read as Yeast UUG start-1 inactive.
Screening C[C@@H]1CN([C@H](C)CO)C(=O)c2cc(-c3ccccc3)cnc2O[C@@H]1CN(C)Cc1ccccn1 returned Yeast UUG start-1 inactive.
`COc1ccc(CN2C(=O)[C@@H]3[C@H]4C(=O)O[C@H](c5ccccc5)[C@@H](C)N(C)C(=O)CC/C=C/[C@H]4O[C@@]34C=CCN(Cc3ccccc3)C(=O)[C@@H]24)cc1` gave Yeast UUG start-1 12! and Yeast UUG start-2 inactive.
Screening C=CCN(Cc1ccccc1)C(=O)[C@H]1N(Cc2ccc(OC)cc2)C(=O)[C@@H]2[C@@H](C(=O)O)C3C=CC21O3 (stereo partly drawn) returned Yeast UUG start-1 inactive.
Screening COc1cc(SC)ccc1C(=O)Nc1ccncc1 returned PKA-R2B act inactive, ABCB6 inh 2 inactive, PKA-R1A act inactive, p-CIP stab down inactive and Granule exo inh inactive.
For COc1cc(SC)ccc1C(=O)Nc1ccccc1C#N the results were PKA-R2B act inactive, ABCB6 inh 2 inactive, PKA-R1A act inactive, p-CIP stab down inactive, Yeast UUG start-1 501, Granule exo inh inactive and Yeast UUG start-2 inactive.
Screening CC(=O)Nc1ccc(S(=O)(=O)NCCC(=O)Nc2ccc(C)c(F)c2)cc1 returned PKA-R2B act inactive, ABCB6 inh 2 inactive, PKA-R1A act inactive, p-CIP stab down inactive, Yeast UUG start-1 200, Granule exo inh inactive and Yeast UUG start-2 inactive.
Screening CC(=O)NCCC(=O)Nc1ccc(C)c(F)c1 returned PKA-R2B act inactive, ABCB6 inh 2 inactive, PKA-R1A act inactive, p-CIP stab down inactive, Yeast UUG start-1 inactive and Granule exo inh inactive.
`CCN(CC)CCNC(=O)Cc1nn(Cc2ccccc2)c(=O)c2ccccc12` gave PKA-R2B act inactive, ABCB6 inh 2 inactive, PKA-R1A act inactive, p-CIP stab down inactive, Yeast UUG start-1 inactive, Granule exo inh inactive and Yeast UUG start-2 inactive.
For CCN(CC)CCNC(=O)Cn1nc(Cc2ccncc2)c2ccccc2c1=O the results were PKA-R2B act inactive, ABCB6 inh 2 inactive, PKA-R1A act inactive, p-CIP stab down inactive, Yeast UUG start-1 inactive and Granule exo inh inactive.
N#Cc1ccccc1OCc1cn(CC(=O)c2ccc(O)cc2)nn1 was read as PKA-R2B act inactive, ABCB6 inh 2 inactive, PKA-R1A act inactive, Yeast UUG start-1 152, Granule exo inh inactive and Yeast UUG start-2 inactive.
`C[C@@H]1CN([C@H](C)CO)C(=O)c2cc(NS(=O)(=O)c3cn(C)cn3)ccc2O[C@@H]1CN(C)Cc1ccc(C(F)(F)F)cc1` gave Yeast UUG start-1 inactive.
`C[C@H](NC(=O)C[C@@H]1CC[C@@H](NC(=O)C2CCOCC2)[C@@H](CO)O1)c1ccccc1` gave Yeast UUG start-1 inactive.
For C[C@H](CO)N1C[C@H](C)[C@H](CN(C)Cc2ccc(Oc3ccccc3)cc2)Oc2ccc(NC(=O)Cn3cnnn3)cc2CC1=O the results were Yeast UUG start-1 inactive.
For C[C@@H]1CN([C@H](C)CO)C(=O)c2cc(C#Cc3ccccc3F)cnc2O[C@H]1CN(C)C(=O)Cc1cccnc1 the results were Yeast UUG start-1 inactive.
Screening C[C@@H]1CN([C@@H](C)CO)C(=O)c2cc(C#Cc3ccccc3F)cnc2O[C@@H]1CN(C)C(=O)Cc1cccnc1 returned Yeast UUG start-1 153 and Yeast UUG start-2 inactive.
`C[C@@H]1CN([C@@H](C)CO)C(=O)c2cc(C#CCN(C)C)cnc2O[C@@H]1CN(C)C(=O)Cc1ccccc1` gave Yeast UUG start-1 176 and Yeast UUG start-2 inactive.
C[C@@H]1CN([C@H](C)CO)C(=O)c2cc(C#CCN(C)C)cnc2O[C@@H]1CN(C)C(=O)Cc1ccccc1 was read as Yeast UUG start-1 inactive.
For C#CCOCCOCCOCCNc1nc(N2CCN(C(=O)[C@H](CCC(=O)O)n3cc(C(N)Cc4ccc(O)cc4)nn3)CC2)nc(N2CCN(C(=O)[C@H](CCC(=O)O)n3cc(C(N)[C@H](C)CC)nn3)CC2)n1 (stereo partly drawn) the results were PKA-R2B act inactive, ABCB6 inh 2 inactive, PKA-R1A act inactive, p-CIP stab down inactive, Yeast UUG start-1 112, Granule exo inh inactive and Yeast UUG start-2 inactive.
`C#CCOCCOCCOCCNc1nc(N2CCN(C(=O)[C@H](CCCN=C(N)N)n3cc(C(N)[C@H](C)CC)nn3)CC2)nc(N2CCN(C(=O)[C@H](CC(N)=O)n3cc(C(N)[C@@H](C)CC)nn3)CC2)n1` (stereo partly drawn) gave PKA-R2B act inactive, ABCB6 inh 2 inactive, PKA-R1A act inactive, Yeast UUG start-1 121, Granule exo inh inactive and Yeast UUG start-2 inactive.
`CCCN(C)C[C@@H]1OCCCC[C@H](C)Oc2ccc(NC(=O)CCC(F)(F)F)cc2C(=O)N([C@H](C)CO)C[C@@H]1C` gave Yeast UUG start-1 inactive.
C[C@H]1CN([C@@H](C)CO)S(=O)(=O)c2ccc(-c3ccncc3)cc2O[C@H]1CN(C)C(=O)CC1CC1 was read as Yeast UUG start-1 inactive.
COCC(=O)Nc1ccc2c(c1)OC[C@@H](C)N(C(=O)COC)C[C@H](C)[C@@H](OC)CN(C)C2=O was read as Yeast UUG start-1 inactive.
